# In patent US20230212272A1 (LONGBIO PHARMA SUZHOU, published 2023):
# B1: Ravulizumab (antibody, human IgG2, kappa, V domains shown)
# VH: QVQLVQSGAEVKKPGASVKVSCKASGHIFSNYWIQWVRQAPGQGLEWMGEILPGSGHTEYTENFKDRVTMTRDTSTSTVYMELSSLRSEDTAVYYCARYFFGSSPNWYFDVWGQGTLVTVSS
# VL: DIQMTQSPSSLSASVGDRVTITCGASENIYGALNWYQQKPGKAPKLLIYGATNLADGVPSRFSGSGSGTDFTLTISSLQPEDFATYYCQNVLNTPLTFGQGTKVEIKR
# Legend:
# [1] = target: T1, C5 of normal human serum (NHS) (human, UniProt P01031 19-1676); experiment: cell-based or functional assay
# [2] = target: T1, C5 of normal human serum (NHS); experiment: cell-based or functional assay; remark: listed apart in the source
binder,measurement,setting,value
B1,"IC50 (ng/ml), inhibition of classical pathway hemolysis of sheep red blood cells by 1% NHS",[1],1190 ng/mL
same,"IC50 (ng/ml), classical pathway (CP) hemolysis inhibition",[2],2680 ng/mL
same,"IC90 (ng/ml), classical pathway (CP) hemolysis inhibition",[2],9060 ng/mL
